B1: RAC-alpha serine/threonine-protein kinase (Homo sapiens), P31749 (parent)
chain: MSDVAIVKEGWLHKRGEYIKTWRPRYFLLKNDGTFIGYKERPQDVDQREAPLNNFSVAQCQLMKTERPRPNTFIIRCLQWTTVIERTFHVETPEEREEWTTAIQTVADGLKKQEEEEMDFRSGSPSDNSGAEEMEVSLAKPKHRVTMNEFEYLKLLGKGTFGKVILVKEKATGRYYAMKILKKEVIVAKDEVAHTLTENRVLQNSRHPFLTALKYSFQTHDRLCFVMEYANGGELFFHLSRERVFSEDRARFYGAEIVSALDYLHSEKNVVYRDLKLENLMLDKDGHIKITDFGLCKEGIKDGATMKTFCGTPEYLAPEVLEDNDYGRAVDWWGLGVVMYEMMCGRLPFYNQDHEKLFELILMEEIRFPRTLGPEAKSLLSGLLKKDPKQRLGGGSEDAKEIMQHRFFAGIVWQHVYEKKLSPPFKPQVTSETDTRYFDEEFTAQMITITPPDQDDSMECVDSERRPHFPQFSYSASGTA
partner: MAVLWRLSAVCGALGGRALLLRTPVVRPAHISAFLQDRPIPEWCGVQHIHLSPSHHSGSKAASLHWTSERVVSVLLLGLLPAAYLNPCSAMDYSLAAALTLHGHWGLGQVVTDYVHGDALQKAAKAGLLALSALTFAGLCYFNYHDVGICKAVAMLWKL
B2: RAC-alpha serine/threonine-protein kinase (Homo sapiens), P31749 (parent)
chain: B1 chain
partner: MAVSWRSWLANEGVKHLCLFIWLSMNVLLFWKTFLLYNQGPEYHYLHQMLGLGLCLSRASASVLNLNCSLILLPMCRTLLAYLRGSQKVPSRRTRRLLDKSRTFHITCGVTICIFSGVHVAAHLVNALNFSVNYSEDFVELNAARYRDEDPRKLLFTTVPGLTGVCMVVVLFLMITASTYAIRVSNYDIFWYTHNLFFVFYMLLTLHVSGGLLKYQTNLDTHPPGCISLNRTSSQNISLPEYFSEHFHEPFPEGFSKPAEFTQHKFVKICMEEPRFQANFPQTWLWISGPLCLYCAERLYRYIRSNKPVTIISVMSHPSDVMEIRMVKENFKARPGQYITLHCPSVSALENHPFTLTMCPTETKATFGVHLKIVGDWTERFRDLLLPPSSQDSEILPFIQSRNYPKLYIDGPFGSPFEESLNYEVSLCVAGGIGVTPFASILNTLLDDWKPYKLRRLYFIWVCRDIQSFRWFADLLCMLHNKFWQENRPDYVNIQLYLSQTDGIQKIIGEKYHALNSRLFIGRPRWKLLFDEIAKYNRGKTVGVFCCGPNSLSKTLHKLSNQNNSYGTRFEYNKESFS
B3: RAC-alpha serine/threonine-protein kinase (Homo sapiens), P31749 (parent)
chain: B1 chain
partner: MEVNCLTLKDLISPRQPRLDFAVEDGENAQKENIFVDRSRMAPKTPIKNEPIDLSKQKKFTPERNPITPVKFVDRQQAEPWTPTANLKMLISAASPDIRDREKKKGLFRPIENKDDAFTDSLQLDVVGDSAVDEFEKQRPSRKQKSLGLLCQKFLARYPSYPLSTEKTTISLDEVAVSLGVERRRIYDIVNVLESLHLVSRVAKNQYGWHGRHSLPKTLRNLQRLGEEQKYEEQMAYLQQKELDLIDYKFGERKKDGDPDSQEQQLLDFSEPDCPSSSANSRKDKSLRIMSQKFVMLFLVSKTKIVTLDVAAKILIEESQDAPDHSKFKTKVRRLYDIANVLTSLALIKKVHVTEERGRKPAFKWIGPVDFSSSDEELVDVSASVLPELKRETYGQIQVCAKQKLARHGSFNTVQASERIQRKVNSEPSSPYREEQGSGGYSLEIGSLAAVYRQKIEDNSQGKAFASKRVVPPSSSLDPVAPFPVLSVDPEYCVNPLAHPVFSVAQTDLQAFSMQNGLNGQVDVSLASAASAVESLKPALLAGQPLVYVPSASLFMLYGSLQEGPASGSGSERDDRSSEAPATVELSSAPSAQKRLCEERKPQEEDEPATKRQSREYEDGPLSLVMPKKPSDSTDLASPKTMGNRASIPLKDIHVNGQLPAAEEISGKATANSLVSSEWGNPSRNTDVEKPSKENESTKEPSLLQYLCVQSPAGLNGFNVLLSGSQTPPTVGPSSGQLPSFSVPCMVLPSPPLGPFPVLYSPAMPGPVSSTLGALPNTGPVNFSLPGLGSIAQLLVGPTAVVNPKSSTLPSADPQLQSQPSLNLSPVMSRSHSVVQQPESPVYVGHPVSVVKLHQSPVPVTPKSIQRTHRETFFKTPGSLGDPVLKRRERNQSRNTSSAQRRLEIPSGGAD
B4: RAC-alpha serine/threonine-protein kinase (Homo sapiens), P31749 (parent)
chain: B1 chain
partner: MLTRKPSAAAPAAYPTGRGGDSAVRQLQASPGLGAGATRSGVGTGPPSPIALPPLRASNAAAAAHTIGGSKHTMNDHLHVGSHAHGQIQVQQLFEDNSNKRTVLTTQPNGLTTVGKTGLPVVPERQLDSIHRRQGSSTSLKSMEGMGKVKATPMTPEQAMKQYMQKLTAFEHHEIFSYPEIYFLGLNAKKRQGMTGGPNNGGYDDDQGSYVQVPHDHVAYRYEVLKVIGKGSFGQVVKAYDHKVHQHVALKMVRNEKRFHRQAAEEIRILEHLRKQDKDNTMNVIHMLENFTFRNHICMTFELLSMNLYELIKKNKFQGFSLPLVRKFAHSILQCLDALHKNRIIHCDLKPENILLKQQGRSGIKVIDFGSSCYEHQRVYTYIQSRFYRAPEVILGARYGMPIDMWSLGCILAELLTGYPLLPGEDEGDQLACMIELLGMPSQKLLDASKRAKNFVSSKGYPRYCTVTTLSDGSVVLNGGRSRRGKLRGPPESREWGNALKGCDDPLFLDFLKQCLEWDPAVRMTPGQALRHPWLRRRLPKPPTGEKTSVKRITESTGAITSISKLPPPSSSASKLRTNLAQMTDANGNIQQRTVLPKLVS
B5: RAC-alpha serine/threonine-protein kinase (Homo sapiens), P31749 (parent)
chain: B1 chain
partner: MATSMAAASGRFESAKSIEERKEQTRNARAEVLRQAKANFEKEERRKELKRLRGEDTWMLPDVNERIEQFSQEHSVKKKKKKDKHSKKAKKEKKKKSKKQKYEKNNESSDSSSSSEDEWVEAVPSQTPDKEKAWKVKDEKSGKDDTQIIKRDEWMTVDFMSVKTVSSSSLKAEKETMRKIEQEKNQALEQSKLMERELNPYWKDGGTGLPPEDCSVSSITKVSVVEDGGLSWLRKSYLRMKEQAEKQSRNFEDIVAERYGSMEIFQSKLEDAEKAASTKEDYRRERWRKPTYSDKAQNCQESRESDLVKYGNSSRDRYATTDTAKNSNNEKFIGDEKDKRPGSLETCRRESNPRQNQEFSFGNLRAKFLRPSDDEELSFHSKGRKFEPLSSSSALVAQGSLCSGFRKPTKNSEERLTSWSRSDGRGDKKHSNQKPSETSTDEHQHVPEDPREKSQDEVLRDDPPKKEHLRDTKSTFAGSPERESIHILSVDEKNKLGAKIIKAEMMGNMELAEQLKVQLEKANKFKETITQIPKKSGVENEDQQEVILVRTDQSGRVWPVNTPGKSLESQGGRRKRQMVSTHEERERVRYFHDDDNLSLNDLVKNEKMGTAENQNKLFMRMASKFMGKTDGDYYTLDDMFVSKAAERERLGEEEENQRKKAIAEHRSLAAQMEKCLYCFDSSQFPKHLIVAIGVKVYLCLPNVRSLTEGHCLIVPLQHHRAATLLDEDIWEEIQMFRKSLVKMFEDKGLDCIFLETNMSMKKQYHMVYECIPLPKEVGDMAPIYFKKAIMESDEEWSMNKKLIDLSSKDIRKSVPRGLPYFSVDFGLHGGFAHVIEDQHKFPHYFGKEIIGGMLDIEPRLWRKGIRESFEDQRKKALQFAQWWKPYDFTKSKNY
B6: RAC-alpha serine/threonine-protein kinase (Homo sapiens), P31749 (parent)
chain: B1 chain
partner: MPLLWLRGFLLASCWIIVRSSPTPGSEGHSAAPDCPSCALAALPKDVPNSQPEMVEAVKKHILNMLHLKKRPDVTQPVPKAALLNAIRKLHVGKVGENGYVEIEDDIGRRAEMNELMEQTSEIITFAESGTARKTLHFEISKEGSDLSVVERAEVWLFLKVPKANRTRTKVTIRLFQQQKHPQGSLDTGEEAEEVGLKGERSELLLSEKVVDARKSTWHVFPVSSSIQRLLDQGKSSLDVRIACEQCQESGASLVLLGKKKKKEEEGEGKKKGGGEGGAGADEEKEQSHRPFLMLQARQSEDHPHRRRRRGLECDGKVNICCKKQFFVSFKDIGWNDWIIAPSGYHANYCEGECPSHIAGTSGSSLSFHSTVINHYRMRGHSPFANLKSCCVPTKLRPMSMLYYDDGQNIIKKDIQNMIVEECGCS
B7: RAC-alpha serine/threonine-protein kinase (Homo sapiens), P31749 (parent)
chain: B1 chain
partner: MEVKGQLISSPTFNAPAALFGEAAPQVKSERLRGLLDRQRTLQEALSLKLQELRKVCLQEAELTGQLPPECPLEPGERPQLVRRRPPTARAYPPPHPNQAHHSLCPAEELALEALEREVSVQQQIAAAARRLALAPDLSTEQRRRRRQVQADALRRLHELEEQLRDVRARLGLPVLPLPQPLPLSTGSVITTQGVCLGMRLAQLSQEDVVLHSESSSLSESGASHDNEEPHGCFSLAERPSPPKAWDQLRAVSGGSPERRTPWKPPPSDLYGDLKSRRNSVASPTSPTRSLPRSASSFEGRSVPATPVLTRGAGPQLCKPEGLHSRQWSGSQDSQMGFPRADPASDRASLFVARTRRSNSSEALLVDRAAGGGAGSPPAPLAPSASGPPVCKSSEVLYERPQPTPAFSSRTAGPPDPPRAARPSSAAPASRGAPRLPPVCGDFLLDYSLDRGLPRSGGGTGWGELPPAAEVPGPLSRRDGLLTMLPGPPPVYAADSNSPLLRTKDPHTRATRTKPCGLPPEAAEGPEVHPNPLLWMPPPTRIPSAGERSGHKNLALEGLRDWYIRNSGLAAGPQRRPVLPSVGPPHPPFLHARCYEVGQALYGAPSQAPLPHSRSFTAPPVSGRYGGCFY
B8: RAC-alpha serine/threonine-protein kinase (Homo sapiens), P31749 (parent)
chain: B1 chain
partner: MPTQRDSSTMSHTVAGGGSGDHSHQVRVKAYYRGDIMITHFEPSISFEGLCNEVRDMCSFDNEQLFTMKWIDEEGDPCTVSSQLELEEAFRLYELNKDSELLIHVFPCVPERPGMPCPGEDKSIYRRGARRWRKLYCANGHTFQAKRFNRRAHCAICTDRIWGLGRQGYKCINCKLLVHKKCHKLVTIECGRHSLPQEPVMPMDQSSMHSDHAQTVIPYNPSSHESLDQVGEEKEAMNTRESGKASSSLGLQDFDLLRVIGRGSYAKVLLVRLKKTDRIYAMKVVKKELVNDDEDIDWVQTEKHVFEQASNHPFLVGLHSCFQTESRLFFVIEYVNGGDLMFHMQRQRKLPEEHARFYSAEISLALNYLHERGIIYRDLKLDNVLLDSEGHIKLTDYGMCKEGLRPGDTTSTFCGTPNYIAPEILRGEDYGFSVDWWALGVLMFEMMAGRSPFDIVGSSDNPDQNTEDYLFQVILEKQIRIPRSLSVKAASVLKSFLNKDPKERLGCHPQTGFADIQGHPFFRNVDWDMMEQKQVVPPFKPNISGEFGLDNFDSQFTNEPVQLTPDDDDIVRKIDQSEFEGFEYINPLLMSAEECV
B9: RAC-alpha serine/threonine-protein kinase (Homo sapiens), P31749 (parent)
chain: B1 chain
partner: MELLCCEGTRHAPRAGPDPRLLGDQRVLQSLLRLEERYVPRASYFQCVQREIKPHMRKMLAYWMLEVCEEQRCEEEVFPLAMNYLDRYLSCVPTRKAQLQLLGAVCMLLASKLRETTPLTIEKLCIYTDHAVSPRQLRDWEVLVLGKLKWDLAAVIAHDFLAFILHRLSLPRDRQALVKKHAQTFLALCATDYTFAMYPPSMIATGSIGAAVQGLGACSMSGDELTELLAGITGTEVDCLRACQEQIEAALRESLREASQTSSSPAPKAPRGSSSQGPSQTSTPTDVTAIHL

The variants in the first assay derive from B1. The following applies: with dhsd_human SDHD.
For the variant E17K, the “effect of a mutation on the interaction” value is reported as “with no effect”.

Another assay covers variants of B2. The following applies: with nox4_human NOX4, Q9NPH5.
E17K: the “effect of a mutation on the interaction” value is given as “causing an interaction”.

Variants of B3 are the subject of a further assay. The following applies: with e2f7_human E2F7, Q96AV8.
In the case of E17K, the “effect of a mutation on the interaction” value is recorded as “with no effect”.

A further assay covers variants of B4. The following applies: with dyrk2_human DYRK2, Q92630.
Turning to E17K, the “effect of a mutation on the interaction” value was “with no effect”.

Variants of B5 are the subject of the next assay. As to conditions: with CWF19L2, Q2TBE0.
For E17K, the “effect of a mutation on the interaction” value was “causing an interaction”.

Another assay covers variants of B6. As to conditions: with inhba_human INHBA.
As for E17K, the “effect of a mutation on the interaction” value is on record as “causing an interaction”.

The next assay covers variants of B6. The following applies: with inhba_human INHBA. The source holds these as a separate data set.
Regarding E17K, the “effect of a mutation on the interaction” value is “increasing interaction strength”.

Variants of B7 are the subject of the next assay. As to conditions: with cc120_human CCDC120, Q96HB5.
Turning to E17K, the “effect of a mutation on the interaction” value was “causing an interaction”.

In the next assay the parent is B8. The following applies: with kpci_human PRKCI.
With E17K, the “effect of a mutation on the interaction” value is recorded as “with no effect”.

The variants in another assay derive from B9. The following applies: with ccnd3_human CCND3, P30281.
In the case of E17K, the “effect of a mutation on the interaction” value is “causing an interaction”.

In another assay the parent is B9. As to conditions: with ccnd3_human CCND3, P30281. This is another data set of the same source.
In the case of E17K, the “effect of a mutation on the interaction” value is on record as “increasing interaction strength”.
